Each structure is given as a SMILES string. Only a part is listed here, and it is no random draw. Activity calls are given as the source filed them.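 The calls were made as follows: active = inhibition above 40% at the single screening dose; inactive = the rest.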

By UniProt entry, the sequences of proteins in these tests, tags left out.
UniProt Q06609, whole entry: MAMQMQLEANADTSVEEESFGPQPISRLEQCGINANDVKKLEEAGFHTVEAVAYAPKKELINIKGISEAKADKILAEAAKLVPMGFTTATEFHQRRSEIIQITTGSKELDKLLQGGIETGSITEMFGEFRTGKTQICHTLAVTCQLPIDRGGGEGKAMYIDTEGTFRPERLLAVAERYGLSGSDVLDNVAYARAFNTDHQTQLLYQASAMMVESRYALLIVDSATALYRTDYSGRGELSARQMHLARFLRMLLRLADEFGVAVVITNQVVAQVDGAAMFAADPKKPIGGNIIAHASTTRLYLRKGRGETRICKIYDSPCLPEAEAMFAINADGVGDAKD

This assay concerns the target DNA repair protein RAD51 homolog 1 (Homo sapiens) (UniProt Q06609). Nature of the assay: human RAD51 strand exchange inhibitors, primary screen, biochemical, fluorescence (AID 1385).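 Also: 0% = DMSO control wells and 100% = blanks with heterologous ssDNA.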 Conditions: hRad51 DNA strand exchange, fluorescence dequenching; at 10 µM; active compounds read high.
On to `c1ccc(CN2CCC(Nc3ccccc3)CC2)cc1`, for which the inhibition is inactive: -3.75%.

For `N#Cc1ccc(C(=O)NCC2(N3CCCCC3)CCCCC2)cc1`, the inhibition was inactive: -9.47%.

As for `COc1ccc(C(=O)NCC2(N3CCOCC3)CCCCC2)cc1OC`, the inhibition is inactive: -2.95%.

Take `CCCOc1ccc(C)cc1CN(CCCl)CCCl`: the inhibition was inactive: -6.29%.

For `COc1cc(OC)cc(C(=O)NCC2(N3CCOCC3)CCCCC2)c1`, the inhibition is inactive: 11.7%.

Turning to `CCC(CO)(C(=O)OC1CN2CCC1CC2)c1ccccc1` (stereo unspecified), the inhibition was inactive: -0.68%.

On to `CC(C)(C)OC(=O)N1CCC(Nc2ccccc2)CC1`, for which the inhibition was inactive: -6.01%.

With `CCOc1ncccc1C(=O)NCC1(N2CCOCC2)CCCCC1`, the inhibition is inactive: -1.01%.

Consider `CN(C)c1ccc(C(=O)NCC2(N3CCCCC3)CCCCC2)cc1`, for which the inhibition was inactive: 0.66%.

In the case of `Fc1ccccc1NC1CCN(Cc2ccccc2)CC1`, the inhibition is inactive: -0.26%.

Regarding `Cc1ccc(OCC(C)C)c(CN(CCCl)CCCl)c1`, the inhibition is inactive: 13.7%.

With `COc1ccc(NC2CCN(CCc3ccccc3)CC2)c(OC)c1`, the inhibition is inactive: -4.46%.

In the case of `CCOc1ccc(C)cc1CN(CCCl)CCCl`, the inhibition is inactive: 2.01%.

As to `N#CC1(Nc2ccccc2)CCN(Cc2ccccc2)CC1`, the inhibition is inactive: 5.52%.

Take `O=C(OC1CN2CCC1CC2)C1c2ccccc2Oc2ccccc21` (stereo unspecified): the inhibition was inactive: 5.97%.

With `CCOC(=O)N1CCC(Nc2ccc(OC)cc2)CC1`, the inhibition is inactive: 1.14%.

`O=C(NCC1(N2CCOCC2)CCCCC1)c1cc2ccccc2o1`: the inhibition was inactive: -5.11%.

Take `COc1ccc(C(=O)NCC2(N3CCCCC3)CCCCC2)c(OC)c1OC`: the inhibition is inactive: -16.6%.

As to `CN1CCC(Nc2cccc(F)c2)CC1`, the inhibition was inactive: -3.22%.

Turning to `CC(C)c1ccc(NC2CCN(C(=O)OC(C)(C)C)CC2)cc1`, the inhibition was inactive: -6.61%.

As to `COc1ccc(CN(CCCl)CCCl)cc1Cl`, the inhibition is inactive: 8.88%.

On to `CN(C)c1cccc(C(=O)NCC2(N3CCCCC3)CCCCC2)c1`, for which the inhibition was inactive: 11.7%.

Consider `COc1ccc(NC2CCN(C(=O)OC(C)(C)C)CC2)cc1`, for which the inhibition is inactive: -107%.

For the compound `CN1CCN(CCOC(=O)C(O)(c2ccccc2)c2ccccc2)CC1`, the inhibition was inactive: 9.31%.

Take `N#CC1(Nc2ccccc2)CCN(CCc2ccccc2)CC1`: the inhibition is inactive: 1.2%.

Consider `O=C(NCC1(N2CCCCC2)CCCCC1)c1cccc([N+](=O)[O-])c1`, for which the inhibition was inactive: -3.92%.

Values taken from PubChem BioAssay AID1385 (PCMD, 2008).
